Drug metabolism data for one compound are collected here from ChEMBL document CHEMBL3525934 (Drug Metab Dispos, 2013).

Chains of the proteins cited; added tags and fusions are not shown.
UniProt P10635, whole entry: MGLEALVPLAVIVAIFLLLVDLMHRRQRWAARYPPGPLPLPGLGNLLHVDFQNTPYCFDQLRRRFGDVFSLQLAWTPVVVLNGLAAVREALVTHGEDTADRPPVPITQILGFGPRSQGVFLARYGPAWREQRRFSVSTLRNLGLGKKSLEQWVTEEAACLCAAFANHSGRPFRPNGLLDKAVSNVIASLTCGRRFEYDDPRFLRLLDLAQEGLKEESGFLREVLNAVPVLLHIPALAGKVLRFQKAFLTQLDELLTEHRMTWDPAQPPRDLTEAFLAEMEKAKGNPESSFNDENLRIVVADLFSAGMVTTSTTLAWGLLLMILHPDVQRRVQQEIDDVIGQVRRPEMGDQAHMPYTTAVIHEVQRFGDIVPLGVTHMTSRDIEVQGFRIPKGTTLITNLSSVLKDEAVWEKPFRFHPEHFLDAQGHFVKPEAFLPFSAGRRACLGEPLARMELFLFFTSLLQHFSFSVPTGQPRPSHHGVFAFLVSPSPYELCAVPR

The target of series [1] is T1, Cytochrome P450 2D6 (Homo sapiens, UniProt P10635). The experiment in a line: Drug metabolism in supersomes expressing human recombinant CYP2D6 assessed as enzyme-mediated clozapine-N-oxide metabolite formation at 100 uM after 30 mins measured per nmol of P450 by HPLC analysis. Format: ADME. The settings on record: 0.5 h.
For series [2], the target named is T1, Cytochrome P450 2D6. The experiment in a line: Drug metabolism in supersomes expressing human recombinant CYP2D6 assessed as enzyme-mediated total GSH conjugate formation at 100 uM after 30 mins measured per nmol of P450 by HPLC analysis in presence of GSH and hGST P1-1. It is filed as ADME. The settings on record: 0.5 h.

As for `CN1CCN(C2=Nc3cc(Cl)ccc3Nc3ccccc32)CC1` [CLOZAPINE], the figures for the Drug metabolism on Cytochrome P450 2D6 [1] and on Cytochrome P450 2D6 [2] were 1.62 nmol/min and 1.6 nmol/min, respectively.
